Test [1] deals with PDK1 kinase activity in PC3 cells (phospho-T308-PKB). In words: Cellular testing of PDK1 kinase inhibitors in PC3 cells (Luminex, phospho-T308-PKB). The note with it: read-out: IC50 [PC3 P-PKB Thr308], 30 min with test substance, serum-free, phospho-T308-PKB by Luminex.
Another test concerns the target PDK1 (Homo sapiens, UniProt O15530). The test is described as follows: Test for the inhibition of PDK1 (flashplate, 33P-ATP). The test is classed as biochemical. To be noted: read-out: IC50 PDK1, His6-PDK1 3.4 nM, 4 μM ATP, 30° C., 60 min. The procedure: The experimental batches are carried out in a flashplate system with 384 wells/microtitration plate.
In each case, the PDK1 sample His6-PDK1(SEQ ID NO: 2)(1-50)(3.4 nM), the PDK1 substrate biotin-bA-bA-[…] (SEQ ID NO: 3) (400 nM), 4 μM ATP (with 0.2 μCi of ^33P-ATP/well) and the test substance in 50 μl of conventional experimental solution per well are incubated at 30° C. for 60 min. The test substances are employed in corresponding concentrations (if desired in a dilution series). The control is carried out without test substance. The reaction is stopped using standard methods and washed. The activity of the kinase is measured via the incorporated radioactivity in top count. In order to determine the non-specific kinase reaction (blank value), the experimental batches are carried out in the presence of 100 nM staurosporin.
The radioactivity (decompositions per minute) of the blank value (no use of test substance in the presence of staurosporin) is subtracted from all other radioactivity values. The controls (kinase activity without test substance) are set equal to 100 percent and all other radioactivity values (after subtracting the blank value) are expressed set in relation thereto (for example in % of the control).
IC50 values (50% inhibition) are determined with the aid of statistics programmes, such as, for example, RS1.

Sequences of proteins named here, by UniProt entry; tags and fusion partners are left off. Residues count along the entry.
UniProt O15530, 51-556 limits assumed: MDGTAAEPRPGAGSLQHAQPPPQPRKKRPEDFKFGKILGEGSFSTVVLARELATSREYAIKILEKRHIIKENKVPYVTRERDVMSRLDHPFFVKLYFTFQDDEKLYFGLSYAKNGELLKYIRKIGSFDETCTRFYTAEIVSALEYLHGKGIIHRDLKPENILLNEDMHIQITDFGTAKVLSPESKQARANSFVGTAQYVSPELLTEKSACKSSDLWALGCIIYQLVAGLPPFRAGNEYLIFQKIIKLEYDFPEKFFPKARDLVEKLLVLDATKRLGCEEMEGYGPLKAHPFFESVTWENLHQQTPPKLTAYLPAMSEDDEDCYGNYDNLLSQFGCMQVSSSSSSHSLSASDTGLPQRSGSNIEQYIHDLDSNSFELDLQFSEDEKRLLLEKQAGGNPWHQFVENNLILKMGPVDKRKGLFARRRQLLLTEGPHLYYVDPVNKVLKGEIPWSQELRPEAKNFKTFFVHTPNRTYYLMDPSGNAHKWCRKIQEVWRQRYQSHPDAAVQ

For the compound `CCCCc1cc(-c2c[nH]c3ncc(-c4cnn(CC(=O)N5CCCC5)c4)cc23)nc(N)n1`, the concentration for half-maximal inhibition (IC50) lay in the range of 1000 to 10000 nM in test [1] and 10 to 1000 nM at PDK1.

As usually defined, the IC50 is the concentration needed to halve the response being measured.

These data come from US8420820B2, “Pyrrolopyridinylpyrimidin-2-ylamine derivatives” (Merck Patent GmbH, priority 2008, dated 2013).
